Ab-91 heavy chain CDR variants: yeast mating affinities

Target: peptide PDVDLGDISGINAS, taken from heptad repeat 2 (HR2) of SARS-CoV-2 spike.

Ab-91 is the parent antibody, in scFv form: VL, then a (GGGGS)3 linker, then VH. The light chain is unchanged in all variants.
VL: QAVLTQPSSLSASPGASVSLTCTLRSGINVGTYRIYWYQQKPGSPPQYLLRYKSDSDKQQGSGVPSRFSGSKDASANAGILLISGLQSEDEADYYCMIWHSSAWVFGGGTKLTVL
VH: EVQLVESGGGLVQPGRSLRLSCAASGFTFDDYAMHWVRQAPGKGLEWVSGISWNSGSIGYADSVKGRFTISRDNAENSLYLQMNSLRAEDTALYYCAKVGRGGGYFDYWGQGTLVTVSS

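In library AAYL51, one, two or three CDR residues were substituted; doubles and triples were drawn at random. The assay is AlphaSeq: two haploid yeast populations carry antibody and antigen on their surface. Pairs that bind mate more often; barcode pairs of the diploids are counted by sequencing. The ratio of observed to expected reads was calibrated, replicate by replicate, on BCL2-family standards whose Kd was known from biolayer interferometry. There are three technical replicates.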

Changes read parent residue, position, new residue, counted from the first residue of the VH shown. Numbers give log10(Kd / nM), so 0 is 1 nM and 3 is 1 µM. Smaller is tighter. Averages over replicates are reported, and they cover detected replicates only. Where no diploid with the target was found in that replicate, the entry reads "ND": below detection, most likely a poor binder, though not proof of it. As a blank, each scFv also met three strains without target: over library AAYL51, 21% of these pairings were detected, typically at 4.54 and seldom below 3.26. For each scFv, signals with the empty controls are counted beside the result, with their mean in brackets.

changes | log10 Kd, replicates | mean, log10 nM | empty controls
D31K V64H K65I | 5.07 6.58 4.99 | 5.54 | 6/9 (4.69)
F27D T28I G56Q | 2.77 3.02 2.35 | 2.71 | 4/9 (5.09)
R101S G102M | 0.55 0.42 -0.22 | 0.25 | 7/9 (4.52)
F29D I51G G56N | 4.04 5.93 ND | 4.98 | 3/9 (4.29)
W53V V64L G104N | ND ND ND | ND | 4/9 (3.92)
T28D A61P | ND ND ND | ND | 0/9
I51Y S52K S63G | ND ND ND | ND | 1/9 (4.17)
S57R G59M G104L | 4.56 6.42 4.80 | 5.26 | 8/9 (5.22)
N54S K65G V99T | ND 5.83 ND | 5.83 | 1/9 (4.08)
D62I G104K Y108F | ND ND ND | ND | 1/9 (2.94)
G26P D30S S52V | ND ND ND | ND | 1/9 (4.80)
S57M G59V Y60C | ND ND ND | ND | 1/9 (4.31)
S52T Y60Q G102V | 3.37 ND ND | 3.37 | 2/9 (3.47)
S52E R101A G104F | ND ND ND | ND | 0/9
Y32M N54W G103Q | ND ND ND | ND | 0/9
G103L Y105L | ND ND ND | ND | 5/9 (4.56)
F27Y S55G G103V | 4.57 ND ND | 4.57 | 0/9
W53I S57P G59A | ND ND ND | ND | 1/9 (4.43)
S52T Y105R Y108P | 5.40 5.66 4.58 | 5.22 | 6/9 (5.13)
Y32A G59Q A61P | 5.11 ND ND | 5.11 | 0/9
G59W A61C | ND ND ND | ND | 1/9 (3.52)
G26Q D31E Y108P | ND ND ND | ND | 0/9
G26Y G50M Y108E | ND ND ND | ND | 0/9
T28F M34Q G50V | 4.61 ND ND | 4.61 | 0/9
W53M Y60Q G102Y | 4.48 ND ND | 4.48 | 1/9 (3.51)
Y60P D62Y | ND ND 3.71 | 3.71 | 0/9
M34K I51F S55W | ND ND ND | ND | 0/9
G26E Y105H | ND ND ND | ND | 0/9
K65N V99T G104V | ND ND ND | ND | 1/9 (4.02)
F29G G50Y A61I | ND ND ND | ND | 0/9
F29Y G56R Y108T | ND ND ND | ND | 0/9
S57Y G100R F106V | 3.89 5.10 4.40 | 4.47 | 7/9 (4.52)
S52Y V99Q G102C | 4.79 ND ND | 4.79 | 1/9 (5.40)
D31E G50K I51L | 5.43 4.80 ND | 5.11 | 5/9 (4.38)
D30G S63K F106T | 2.81 3.17 2.91 | 2.96 | 4/9 (4.74)
V64Q D107N Y108D | 3.70 6.82 ND | 5.26 | 4/9 (4.61)
N54Q G104C Y108W | 4.28 ND 5.27 | 4.77 | 2/9 (3.84)
D31T S57M V64N | 2.20 ND ND | 2.20 | 0/9
T28H F29T K65W | ND ND ND | ND | 1/9 (2.04)
H35G Y60I K65F | ND ND ND | ND | 1/9 (3.85)
S57M A61W | 4.46 5.42 ND | 4.94 | 2/9 (4.65)
D31H S55W S63A | ND ND ND | ND | 0/9
G26S F27S S55E | 5.29 ND ND | 5.29 | 1/9 (4.11)
S57R Y60E | 5.15 ND ND | 5.15 | 4/9 (4.33)
F27P F29H G104V | ND ND ND | ND | 0/9
Y60H A61H G102N | ND ND ND | ND | 0/9
G26E W53V Y108C | 5.24 5.75 5.21 | 5.40 | 6/9 (4.68)
T28W M34P | ND ND ND | ND | 1/9 (3.44)

Excerpt, the final 7 entries:

{"changes": "D31H S55W S63A", "log10 Kd, replicates": "ND ND ND", "mean, log10 nM": "ND", "empty controls": "0/9"}
{"changes": "G26S F27S S55E", "log10 Kd, replicates": "5.29 ND ND", "mean, log10 nM": "5.29", "empty controls": "1/9 (4.11)"}
{"changes": "S57R Y60E", "log10 Kd, replicates": "5.15 ND ND", "mean, log10 nM": "5.15", "empty controls": "4/9 (4.33)"}
{"changes": "F27P F29H G104V", "log10 Kd, replicates": "ND ND ND", "mean, log10 nM": "ND", "empty controls": "0/9"}
{"changes": "Y60H A61H G102N", "log10 Kd, replicates": "ND ND ND", "mean, log10 nM": "ND", "empty controls": "0/9"}
{"changes": "G26E W53V Y108C", "log10 Kd, replicates": "5.24 5.75 5.21", "mean, log10 nM": "5.40", "empty controls": "6/9 (4.68)"}
{"changes": "T28W M34P", "log10 Kd, replicates": "ND ND ND", "mean, log10 nM": "ND", "empty controls": "1/9 (3.44)"}

In this assay the parent's reference entry averaged 1.86; its copy inside this library read 0.88.

Data: MIT Lincoln Laboratory AlphaSeq set, Engelhart et al. 2022, doi:10.1038/s41597-022-01779-4, as distributed in FLAb.